Numbers after ± are expanded uncertainties.
Assay: activity coefficient (dimensionless); of the first substance listed, at infinite dilution; xn = mol fraction of the nth substance listed
Details: 101 kPa, Liquid, Chromatography, x1 = 0

c1ccc2cccc-2cc1 [bicyclo[5.3.0]deca-2,4,6,8,10-pentaene] + CCCCCCCCCCCCCCCCCCC(CCCCCCCCCCCCCCCCCC)CCCCC(CCCCCCCCCCCCCCCCCC)CCCCCCCCCCCCCCCCCC
activity coefficient (373.15 K): 0.568 ± 0.031 | activity coefficient (388.15 K): 0.528 ± 0.032 | activity coefficient (403.15 K): 0.498 ± 0.033 | activity coefficient (418.15 K): 0.472 ± 0.033 | activity coefficient (433.15 K): 0.475 ± 0.033

Reference: the NIST ThermoML archive (doi:10.1016/j.fluid.2006.07.015)
